# Test system: HCC827 cells
# Experiment: Soft agar anchorage-independent growth, HCC827
# Format: cell-based, human
# Details: 2 weeks; GEF 1 μM, SAV 2 nM or both
# Description: The anchorage-independent cell growth assay was performed in 6-well plates with dual agar layers containing 0.6 % agar (lower layer) and 0.3 % agar (upper layer) supplemented with BME, 2 mM L-glutamine, 5 μg/ml gentamicin, and 10 % FBS. After 2 weeks of incubation, the number of colonies was assessed using a microscope (Leica, Wetzlar, Germany), and the mean colony area was analyzed using i-Solution ^TM software (Vancouver, BC, Canada).
compound,measurement,value
"COc1cc2ncnc(Nc3ccc(F)c(Cl)c3)c2cc1OCCCN1CCOCC1 [GEF, gefitinib, reference compound]","colony formation, in words",did not form any colonies
